Test results: paper PMC3855329, “A Fluorescence-Based Thermal Shift Assay Identifies Inhibitors of Mitogen Activated Protein Kinase Kinase 4” (PLoS ONE, 2013)

Target: T1, human MAP2K4-EE (Homo sapiens, UniProt P45985, S257E/T261E)
T1 construct: Human MAP2K4-EE (residues 37–399); His tag (pMCSG7 vector, TEV-cleavable) (N); made in house; host or cells: E. coli KRX cells with pGro7 (GroEL/GroES)
T1 sequence (P45985 37-399 S257E/T261E): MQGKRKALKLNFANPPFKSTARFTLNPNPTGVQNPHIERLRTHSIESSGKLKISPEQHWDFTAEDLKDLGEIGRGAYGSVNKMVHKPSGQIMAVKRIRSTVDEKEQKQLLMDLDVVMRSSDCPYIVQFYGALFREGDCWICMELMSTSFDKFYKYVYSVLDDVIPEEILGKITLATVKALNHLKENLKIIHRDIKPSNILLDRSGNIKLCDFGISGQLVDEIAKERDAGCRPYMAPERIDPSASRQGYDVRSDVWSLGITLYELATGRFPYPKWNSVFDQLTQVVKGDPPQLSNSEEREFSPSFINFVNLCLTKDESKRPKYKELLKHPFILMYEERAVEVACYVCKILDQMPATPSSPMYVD
Assay: Fluorescence-based thermal shift (FTS) assay
Format: binding
Conditions: 10 µM compound, mean ± SD

Compound: CN[C@@H]1C[C@H]2O[C@@](C)([C@@H]1OC)n1c3ccccc3c3c4c(c5c6ccccc6n2c5c31)C(=O)NC4 [Staurosporine]
- ΔTm at 10 µM (n = 3): 10.03±0.05 °C
- ΔTm at 10 µM (n = 3, listed as staurosporine): > 4 °C
